Assay results: patent US20040068113A1, “Substituted polycyclic aryl and heteroaryl pyridines useful for selective inhibition of the coagulation cascade” (priority 2003, published 2004)

Sequences of proteins named here, by UniProt entry; tags and fusion partners are left off. Residues count along the entry.
UniProt P00761, 9-231 limits assumed: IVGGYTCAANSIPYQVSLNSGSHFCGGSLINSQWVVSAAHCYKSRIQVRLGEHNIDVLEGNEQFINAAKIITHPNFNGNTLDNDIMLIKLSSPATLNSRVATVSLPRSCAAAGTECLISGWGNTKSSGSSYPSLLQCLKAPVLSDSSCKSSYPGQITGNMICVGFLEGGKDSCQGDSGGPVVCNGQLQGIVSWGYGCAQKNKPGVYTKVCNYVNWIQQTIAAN
UniProt P00742, 41-179 limits assumed: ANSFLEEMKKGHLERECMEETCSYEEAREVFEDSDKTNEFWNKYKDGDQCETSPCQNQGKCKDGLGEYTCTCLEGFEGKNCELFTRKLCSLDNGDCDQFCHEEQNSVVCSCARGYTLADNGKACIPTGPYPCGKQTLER
UniProt P00742, 235-488 limits assumed: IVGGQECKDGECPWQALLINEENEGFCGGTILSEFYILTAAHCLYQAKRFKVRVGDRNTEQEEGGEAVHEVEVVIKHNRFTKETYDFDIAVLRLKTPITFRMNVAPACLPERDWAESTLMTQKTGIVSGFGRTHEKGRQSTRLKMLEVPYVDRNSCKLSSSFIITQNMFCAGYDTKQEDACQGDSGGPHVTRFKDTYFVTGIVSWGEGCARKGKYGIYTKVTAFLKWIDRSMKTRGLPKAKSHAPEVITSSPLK
UniProt P08709, 61-212 limits assumed: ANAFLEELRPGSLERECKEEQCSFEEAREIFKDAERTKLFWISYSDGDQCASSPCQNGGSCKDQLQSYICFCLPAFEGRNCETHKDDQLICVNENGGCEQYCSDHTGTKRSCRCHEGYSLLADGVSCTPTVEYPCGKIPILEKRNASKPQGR
UniProt P08709, 213-466 limits assumed: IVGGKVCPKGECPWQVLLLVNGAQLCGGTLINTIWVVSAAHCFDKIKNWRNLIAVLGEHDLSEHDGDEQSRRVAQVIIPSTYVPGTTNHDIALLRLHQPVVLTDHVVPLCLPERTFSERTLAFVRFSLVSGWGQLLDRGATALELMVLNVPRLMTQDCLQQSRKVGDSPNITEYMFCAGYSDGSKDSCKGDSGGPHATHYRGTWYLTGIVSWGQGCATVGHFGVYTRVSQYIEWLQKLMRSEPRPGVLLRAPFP
UniProt P13726, 33-251 partner limits assumed: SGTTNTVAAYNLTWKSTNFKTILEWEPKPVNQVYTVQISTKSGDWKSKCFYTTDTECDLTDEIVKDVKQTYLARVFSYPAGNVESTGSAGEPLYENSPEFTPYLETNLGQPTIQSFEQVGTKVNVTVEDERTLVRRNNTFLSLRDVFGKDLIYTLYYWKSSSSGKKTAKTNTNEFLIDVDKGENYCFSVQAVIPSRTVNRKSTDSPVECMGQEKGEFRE

Assays:
[1] = target: Trypsin (type 1× from porcine pancreas) (Sus scrofa, UniProt P00761); assay: Trypsin Assay; conditions: read-out: Trpysin II IC50
Procedure: Trypsin (5 ug/ml; type 1× from porcine pancreas) and 0.375 mM N-α-Benzoyl-L-arginine-p-nitroanilide (L-BAPNA) are added to a 96-well assay plate containing either inhibitor or buffer (50 mM Tris-HCl, pH 8.0, 100 mM NaCl, 0.1% BSA). The reactions, in a final volume of 100 ul are measured immediately at 405 nm to determine background absorbance. The plate is incubated at room temperature for 60 min, at which time the rate of hydrolysis of the substrate is measured by monitoring the reaction at 405 nm for the release of p-nitroaniline. Percent inhibition of trypsin activity is calculated from OD405 nm value from the experimental and control sample.
(§1) Recombinant soluble TF, consisting of amino acids 1-219 of the mature protein sequence was expressed in E. coli and purified using a Mono Q Sepharose FPLC. Recombinant human VIIa was purchased from American Diagnostica, Greenwich Conn. and chromogenic substrate N-Methylsulfonyl-D-phe-gly-arg-p-nitroaniline was prepared by American Peptide Company, Inc., Sunnyvale, Calif. Factor Xa was obtained from Enzyme Research Laboratories, South Bend Ind., thrombin from Calbiochem, La Jolla, Calif., and trypsin and L-BAPNA from Sigma, St. Louis Mo. The chromogenic substrates S-2765 and S-2238 were purchased from Chromogenix, Sweden.

[2] = target: Human factor Xa (Homo sapiens, UniProt P00742); assay: Xa Assay; conditions: read-out: Factor Xa IC50
Procedure: (§2) Human factor Xa (0.3 nM) and 0.15 mM N-a-Benzyloxycarbonyl-D-arginyl-L-glycyl-L-arginine-p-nitroaniline-dihydrochloride (S-2765) are added to a 96-well assay plate containing either inhibitor or buffer (50 mM Tris-HCl, pH 8.0, 100 mM NaCl, 0.1% BSA). The reaction, in a final volume of 100 ul is measured immediately at 405 nm to determine background absorbance. The plate is incubated at room temperature for 60 min, at which time the rate of hydrolysis of the substrate is measured by monitoring the reaction at 405 nm for the release of p-nitroaniline. Percent inhibition of Xa activity is calculated from OD405 nm value from the experimental and control sample.
as §1

[3] = target: recombinant soluble tissue factor and recombinant human factor VIIa (TF-VIIa) (Homo sapiens, UniProt P08709); assay: TF-VIIa Assay; conditions: read-out: TF-VIIA IC50
Procedure: as §2, with “In this assay 100 nM recombinant soluble tissue” for “Human”, “factor” for “factor Xa (0.3 nM)”, “2 nM recombinant human factor VIIa” for “0.15 mM N-a-Benzyloxycarbonyl-D-arginyl-L-glycyl-L-arginine-p-nitroaniline-dihydrochloride (S-2765)”, “containing 0.4 mM of the substrate, N-Methylsulfonyl-D-phe-gly-arg-p-nitroaniline and” for “containing”, “(5 mM CaCl2, 50” for “(50”, “TF-VIIa” for “Xa”
as §1

[4] = target: Human thrombin (Homo sapiens, UniProt P00734); assay: Thrombin Assay; conditions: read-out: Thrombin II IC50
Procedure: as §2, with “thrombin (0.28 nm)and 0.06” for “factor Xa (0.3 nM) and 0.15”, “H-D-Phenylalanyl-L-pipecolyl-L-arginine-p-nitroaniline dihydrochloride” for “N-a-Benzyloxycarbonyl-D-arginyl-L-glycyl-L-arginine-p-nitroaniline-dihydrochloride (S-2765)”, “thrombin” for “Xa”, “OD405nm” for “OD405 nm”
as §1

Compound	IC50 [1] [µM]	IC50 [2] [µM]	IC50 [3] [µM]	IC50 [4] [µM]	IC50 ([1]; tested form: TFA) [µM]	IC50 ([2]; tested form: TFA) [µM]	IC50 ([3]; tested form: TFA) [µM]	IC50 ([4]; tested form: TFA) [µM]
CC(C)Nc1ccc(-c2ccccc2-c2ccc(F)cc2)c(CC(=O)NCc2ccc(C(=N)N)cc2)[n+]1[O-]	0.47	75	18	48.6				
COC(=O)c1cc(N)cc(-c2ccc(NC(C)C)[n+]([O-])c2CC(=O)NCc2ccc(C(=N)N)cc2)c1					0.02	> 100	0.241	8.8

Read-outs that look alike come from different tables or passages of the source.
